Measurements: US20050192261A1, “Methods and reagents for the treatment of immunoinflammatory disorders” (priority 2003, published 2005)
Where “and” joins values, the source holds several entries; their conditions need not be identical. Equal values may be shown once.

Tested on: TNFα secretion in white blood cells from human buffy coat stimulated with phorbol 12-myristate 13-acetate and ionomycin
Experiment: TNFα secretion assay
Settings: cetrizine HCl r5-r13: 0,0.2,0.4,0.8,1.6,3.2,6.4,13,26 μM

Structure (SMILES): Cl.Cl.O=C(O)COCCN1CCN(C(c2ccccc2)c2ccc(Cl)cc2)CC1 (centres unmarked) [Cetrizine HCl]
- inhibition of TNFα secretion (prednisolone 0.5 μM): 42 and 45 and 46 and 40 and 39 and 41
- inhibition of TNFα secretion (prednisolone 1 μM): 47
